{
  "source": "paper PMC12785511",
  "about": "“Integrative Profiling for BBB Permeability Using Capillary Electrochromatography, Experimental Physicochemical Parameters, and Ensemble Machine Learning” (International Journal of Molecular Sciences, 2025)",
  "key": {"[1]": {"assay": "Sirius T3 automated potentiometric titrations with n-octanol, log P / log D", "details": "for Log D7.4: pH 7.4"}, "[2]": {"assay": "open-tubular capillary electrochromatography (CEC), permeability k′ parameter", "assay_type": "in vitro ADME", "details": "pH 7.4 HEPES buffer 40 mM, migration times in coated and uncoated capillary, mean ± SD of three independent experiments"}, "[3]": {"details": "experimental in vivo measurements from rats, data retrieved from literature; cited from earlier work"}},
  "data": [
    {"substance": "pindolol", "values": [
      {"measurement": "Log P ± SD", "setting": "[1]", "value": "1.91 ± 0.01"},
      {"measurement": "Log D7.4", "setting": "[1]", "value": "−0.28"}
    ]},
    {"substance": "clonidine", "values": [
      {"measurement": "Log P ± SD", "setting": "[1]", "value": "1.53 ± 0.01"},
      {"measurement": "Log D7.4", "setting": "[1]", "value": 0.74}
    ]},
    {"substance": "nicotine", "values": [
      {"measurement": "k′ ± SD (CEC)", "setting": "[2]", "value": "0.00897 ± 0.00167"},
      {"measurement": "Log BB", "setting": "[3]", "value": 0.40},
      {"measurement": "Log P ± SD", "setting": "[1]", "value": "1.31 ± 0.01"},
      {"measurement": "Log D7.4", "setting": "[1]", "value": 0.54}
    ]}
  ]
}
